From patent US20240132480A1, “INHIBITORS OF MYCOBACTERIUM TUBERCULOSIS LIPOAMIDE DEHYDROGENASE” (Cornell University, priority 2021, published 2024)

What was measured:
[1] = Microsomal clearance (hLM); details: in vitro ADME-tox profiling, in words
mouse BMDM = experiment: Toxicity to BMDM by MTS assay; details: any concentration tested

Row | Structure (SMILES) | microsomal clearance [1] | toxicity to mouse BMDM (mouse BMDM)
1 | COc1ccc(NC(=O)CN(C)S(=O)(=O)c2cc(C)cc3cn[nH]c23)cc1Cl [Example 1, N-(3-chloro-4-methoxyphenyl)-2-((N,5-dimethyl-1H-indazole)-7-sulfonamido)acetamide] | rapid microsomal clearance | –
2 | Cc1cc(S(=O)(=O)N(C)CC(=O)Nc2ccn(C)c(=O)c2)c2[nH]ncc2c1 [Example 24, 2-((5-chloro-N-methyl-1H-indazole)-7-sulfonamido)-N-(1-methyl-2-oxo-1,2-dihydropyridin-4-yl)acetamide] | – | No toxicity was observed
